Measurements published in PubChem BioAssay (Tox21).
Values joined by “and” are separate entries in the source; they are usually repeats but may differ in a detail not shown here. Equal entries are not always repeated. The entries are a selection whose mix differs from that of the whole data set. Results filed as inconclusive are left out. Active and inactive are the calls of the source. Unless noted, calls come from the whole dose curve.

Sequences of proteins named here, by UniProt entry; tags and fusion partners are left off.
UniProt P30968, whole entry: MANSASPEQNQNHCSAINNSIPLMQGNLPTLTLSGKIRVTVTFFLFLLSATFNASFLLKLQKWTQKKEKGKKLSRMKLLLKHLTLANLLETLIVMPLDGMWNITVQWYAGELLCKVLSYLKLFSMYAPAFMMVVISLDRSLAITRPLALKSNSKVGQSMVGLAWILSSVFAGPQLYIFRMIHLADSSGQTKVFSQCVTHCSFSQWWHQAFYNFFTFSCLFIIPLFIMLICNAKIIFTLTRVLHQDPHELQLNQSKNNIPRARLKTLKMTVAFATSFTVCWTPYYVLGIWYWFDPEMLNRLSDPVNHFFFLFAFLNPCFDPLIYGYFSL
UniProt Q969F8, whole entry: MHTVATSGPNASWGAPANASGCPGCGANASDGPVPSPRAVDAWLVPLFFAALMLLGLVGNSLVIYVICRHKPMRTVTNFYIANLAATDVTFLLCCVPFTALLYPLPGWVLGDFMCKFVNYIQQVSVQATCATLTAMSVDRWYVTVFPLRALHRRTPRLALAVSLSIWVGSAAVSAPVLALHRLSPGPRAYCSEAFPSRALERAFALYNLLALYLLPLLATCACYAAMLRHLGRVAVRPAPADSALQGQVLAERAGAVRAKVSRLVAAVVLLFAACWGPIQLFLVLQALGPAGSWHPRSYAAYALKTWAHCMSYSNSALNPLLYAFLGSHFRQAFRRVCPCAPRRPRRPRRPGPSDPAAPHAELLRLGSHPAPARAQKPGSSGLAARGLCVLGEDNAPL
UniProt P28223, whole entry: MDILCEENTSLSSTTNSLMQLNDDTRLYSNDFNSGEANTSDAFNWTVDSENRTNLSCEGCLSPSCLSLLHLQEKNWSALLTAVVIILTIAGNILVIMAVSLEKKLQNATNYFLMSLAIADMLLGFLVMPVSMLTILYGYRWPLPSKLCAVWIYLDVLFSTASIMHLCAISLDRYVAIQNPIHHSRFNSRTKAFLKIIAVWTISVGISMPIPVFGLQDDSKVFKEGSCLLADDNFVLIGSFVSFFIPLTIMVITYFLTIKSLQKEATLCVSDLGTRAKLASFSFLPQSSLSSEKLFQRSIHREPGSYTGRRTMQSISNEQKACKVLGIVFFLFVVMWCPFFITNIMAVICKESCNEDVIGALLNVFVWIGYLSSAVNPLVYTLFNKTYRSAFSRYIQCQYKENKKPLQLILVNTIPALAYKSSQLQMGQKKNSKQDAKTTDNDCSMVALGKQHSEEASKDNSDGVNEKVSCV
UniProt P11229, whole entry: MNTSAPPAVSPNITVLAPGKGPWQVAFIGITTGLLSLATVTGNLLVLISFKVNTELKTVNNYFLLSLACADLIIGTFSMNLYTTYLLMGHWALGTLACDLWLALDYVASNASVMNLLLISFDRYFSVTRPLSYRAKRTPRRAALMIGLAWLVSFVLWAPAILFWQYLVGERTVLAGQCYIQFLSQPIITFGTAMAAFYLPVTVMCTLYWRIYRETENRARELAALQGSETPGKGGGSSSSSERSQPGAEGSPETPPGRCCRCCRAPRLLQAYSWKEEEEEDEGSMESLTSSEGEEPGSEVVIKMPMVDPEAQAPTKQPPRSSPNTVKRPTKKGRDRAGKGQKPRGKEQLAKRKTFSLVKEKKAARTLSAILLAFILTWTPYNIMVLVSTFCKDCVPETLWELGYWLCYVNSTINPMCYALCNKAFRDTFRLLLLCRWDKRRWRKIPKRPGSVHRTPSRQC
UniProt P07550, whole entry: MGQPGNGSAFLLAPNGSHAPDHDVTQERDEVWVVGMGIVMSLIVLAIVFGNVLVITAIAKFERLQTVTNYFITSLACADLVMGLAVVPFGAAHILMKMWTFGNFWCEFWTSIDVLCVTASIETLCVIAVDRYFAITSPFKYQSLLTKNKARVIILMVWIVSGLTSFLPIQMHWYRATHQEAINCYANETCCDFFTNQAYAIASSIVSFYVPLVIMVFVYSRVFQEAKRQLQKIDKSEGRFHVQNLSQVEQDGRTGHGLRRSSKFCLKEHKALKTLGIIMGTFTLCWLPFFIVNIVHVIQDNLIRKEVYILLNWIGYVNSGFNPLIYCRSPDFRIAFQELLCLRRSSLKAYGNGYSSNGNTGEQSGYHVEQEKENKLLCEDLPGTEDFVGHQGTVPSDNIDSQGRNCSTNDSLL
UniProt P14416, whole entry: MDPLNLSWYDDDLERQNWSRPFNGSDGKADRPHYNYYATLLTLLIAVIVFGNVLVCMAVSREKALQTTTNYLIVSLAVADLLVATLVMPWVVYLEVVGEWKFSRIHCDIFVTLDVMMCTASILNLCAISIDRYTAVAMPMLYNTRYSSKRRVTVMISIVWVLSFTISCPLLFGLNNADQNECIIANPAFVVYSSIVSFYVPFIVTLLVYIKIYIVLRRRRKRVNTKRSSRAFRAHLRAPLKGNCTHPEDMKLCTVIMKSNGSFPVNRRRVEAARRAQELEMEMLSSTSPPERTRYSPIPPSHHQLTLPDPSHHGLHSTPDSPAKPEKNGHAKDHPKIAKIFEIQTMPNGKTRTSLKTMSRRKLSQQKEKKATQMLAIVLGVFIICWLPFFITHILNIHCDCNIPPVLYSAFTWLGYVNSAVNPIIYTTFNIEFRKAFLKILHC

Tests used:
[1] = Nuclear factor erythroid 2-related factor 2/antioxidant responsive element (Nrf2/ARE) small molecule agonists: qHTS cell viability counter screen in human keratinocytes (AID 1919968; active = well fitted curve in the direction sought with a large enough effect in the repeat runs; an effect the other way counts as inactive or inconclusive; note: nearly all actives have a fitted effect of over 55% in size); conditions: KeratinoSens HaCaT ARE cells viability, CellTiter-Fluor, 24 h; at 92.4 µM (top of the series) unless noted
How it was run: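 HaCaT ARE reporter line, 1,500 cells/well; 5 h settle, 37 C/5% CO2; cpd in DMSO pinned; 23 h exposure; CellTiter-Fluor, 1 h; fluorescence.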

[2] = Nuclear factor erythroid 2-related factor 2/antioxidant responsive element (Nrf2/ARE) small molecule agonists: luciferase reporter gene qHTS assay in human keratinocytes (AID 1919969); conditions: KeratinoSens HaCaT ARE-luciferase, luminescence, 24 h; at 92.4 µM (top of the series) unless noted; note: nearly all actives have a fitted effect of over 35% in size
Source text: National Center for Advancing Translational Sciences [NCATS]
Division of Preclinical Innovation [DPI]
U.S. Environmental Protection Agency [EPA]
National Institutes of Environmental Health Sciences [NIEHS]
National Toxicology Program [NTP]
U.S. Food and Drug Administration [FDA]
Oxidative stress has been implicated in the pathogenesis of a variety of diseases ranging from cancer to neurodegeneration. The antioxidant response element (ARE) signaling pathway plays an important role in the amelioration of oxidative stress. The KeratinoSens (Givaudan, Switzerland) is an in vitro test method which quantifies luciferase induction as a measure of activation of Keap1-Nrf2-antioxidationt/electrophile response element (ARE) dependant pathway in HaCaT human keratinocytes stably transfected with a selectable plasmid. The KeratinoSens assay is a cell-based assay with a reporter cell line to detect potential skin sensitizers by their ability to induce the Nrf2/ARE-response. The activation of the report gene under culture conditions can be detected by ONE-Glo Luciferase Assay System (Promega, Madison, WI). This cell line has been used to screen the Tox21 10K compound library to identify agonists that induce oxidative stress. The cytotoxicity of the Tox21 compound library against the KS-ARE cell line was tested in parallel by measuring the cell viability using CellTiter- Fluor assay system (Promega, Madison, WI) in the same wells.
HaCaT derived cell line KeratinoSens were dispensed at 1,500 cells/5uL/well in 1536-well white wall/solid bottom plates using a Multidrop Combi (ThermoFisher Scientific, Waltham, MA) dispenser. After the assay plates were incubated at 37 C/5% CO2 for 5 h, 23 nL of compounds dissolved in DMSO, positive controls or DMSO only was transferred to the assay plate by a pintool workstation (Kalypsys, San Diego, CA). The plates were incubated at 37 C/5% CO2 for 23 h, followed by addition of 1uL/well of CellTiter-Fluor reagent into the assay plates using a Flying Reagent Dispenser (Aurora Discovery, San Diego, CA) for cell viability readout that measures cytotoxicity. After 1 h incubation at 37 C/5% CO2 the fluorescence intensity was measured using a ViewLux (PerkinElmer, Shelton, CT) plate reader. Then 4uL/well of One-Glo were added using a Flying Reagent Dispenser. After the plates were incubated at room temperature for 30 min, the luminescence intensity in the assay plates was measured using ViewLux plate reader.

[3] = biological target: Gonadotropin-releasing hormone receptor (Homo sapiens) (UniProt P30968); experiment: Human gonadotropin-releasing hormone receptor (GnRHR) small molecule agonists, calcium flux assay in GnRHR-HEK293 cells (AID 1920063); conditions: calcium flux fluorescence, agonist mode, hits give high values; at 57.6 µM (top of the series) unless noted; note: nearly all actives have a fitted effect of over 35% in size
How it was run: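 GnRHR-HEK293, 1500 cells/well, 18 h 37 C/5% CO2; Ca dye 1 h 37 C; cpd pinned (DMSO), agonist mode; kinetic FL 480/540, 3 min, 1 s reads; 15 conc, n=3.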

[4] = biological target: KiSS-1 receptor (Homo sapiens) (UniProt Q969F8); experiment: Human kisspeptin (KISS1R) small molecule agonists, calcium flux assay in KISS1R-HEK293 cells (AID 1920064; active = well fitted curve in the direction sought with a large enough effect in the repeat runs; an effect the other way counts as inactive or inconclusive); conditions: KISS1R-HEK293, calcium flux fluorescence, agonist; at 76.8 µM (top of the series) unless noted
How it was run: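 Stable human KISS1R HEK293 line; 18 h plating, 37 C/5% CO2; calcium dye 1 h 37 C; compound pin transfer; kinetic fluorescence Ex/Em 480/540, 3 min.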

[5] = G protein-coupled receptor (GPCR) small molecule agonists, calcium flux assay: HEK293 wild type cell line counter screen (AID 1920065); conditions: HEK293 WT calcium flux, fluorescence, agonist mode; at 57.6 µM (top of the series) unless noted
How it was run: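 Kinetic fluorescence at Ex/Em 480/540, recorded every second over 3 min, served as the read-out after compound addition. Each compound was tested at 15 concentrations in triplicate on cells pre-loaded with calcium dye for 1 h.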

[6] = p53 small molecule agonists, cell-based qHTS assay with human liver microsomes (AID 1963577); conditions: HCT-116 p53RE-bla with human liver microsomes, ratio, 16 h; at 66 µM (top of the series) unless noted;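 note: p53 response element beta-lactamase reporter cells with liver microsomes plus NADPH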
How it was run: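 16 h, 37 C exposure of p53RE-bla cells to compounds with human liver microsomes and NADPH (0.5 mg/mL final each); detection via LiveBLAzer mixture, 2 h dark at room temperature.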

[7] = p53 small molecule agonists, cell-based qHTS assay with rat liver microsomes (AID 1963578); conditions: HCT-116 p53RE-bla, beta-lactamase ratio, 16 h; at 66 µM (top of the series) unless noted
How it was run: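 With rat liver microsomes and NADPH present (0.5 mg/mL final each), p53RE-bla cells are treated with compound for 16 h at 37 C. LiveBLAzer detection mixture is then applied for 2 h at room temperature in the dark.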

[8] = p53 small molecule agonists, cell-based qHTS assay with human liver microsomes: qHTS cell viability counter screen (AID 1963579); conditions: p53RE-bla HCT-116 viability, ATP luminescence, 16 h, HLM; at 66 µM (top of the series) unless noted; note: nearly all actives have a fitted effect of over 45% in size
How it was run: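 In this multiplexed counter screen, the reporter plates were subsequently treated with CellTiter-Glo so that cell viability, reflected by luminescence, could be recorded for p53RE-bla cells dosed 16 h with compounds under microsomal activation (HLM and NADPH).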

[9] = p53 small molecule agonists, cell-based qHTS assay with rat liver microsomes: qHTS cell viability counter screen (AID 1963580); conditions: p53RE-bla HCT-116 + rat microsomes, ATP viability, 16 h; at 66 µM (top of the series) unless noted; note: nearly all actives have a fitted effect of over 45% in size
How it was run: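 HCT-116 p53RE-bla, 4,000 cells/well, 5 h pre-incubation; cpd + rat liver microsomes 0.5 mg/mL + NADPH 0.5 mg/mL (final); 16 h, 37 C; CellTiter-Glo, 30 min RT; luminescence.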

[10] = p53 small molecule agonists, cell-based qHTS assay: qHTS cell viability counter screen (AID 1963581); conditions: p53RE-bla HCT-116 viability, ATP luminescence, 16 h; at 66 µM (top of the series) unless noted; note: nearly all actives have a fitted effect of over 45% in size
How it was run: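 HCT-116 p53RE-bla cells, 4,000/well, plated 5 h before compound pin transfer; 16 h at 37 C; bla substrate 2 h RT; then CellTiter-Glo, 30 min RT, luminescence.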

[11] = p53 small molecule agonists, cell-based qHTS assay (AID 1963582; active = well fitted activation curve with a large enough effect in the signal ratio in the repeat runs, not every such curve was filed as active; the % refers to the signal ratio); conditions: HCT-116 p53RE-bla reporter, beta-lactamase FRET ratio, 16 h; at 66 µM (top of the series) unless noted
How it was run: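 Reporter line: p53RE-bla. Pre-incubation 5 h, 37 C, 5% CO2; compound (DMSO, pin tool) 16 h, 37 C; B/G FRET substrate 2 h RT; fluorescence intensity read.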

[12] = biological target: 5-hydroxytryptamine receptor 2A (Homo sapiens) (UniProt P28223); experiment: 5-hydroxytryptamine receptor 2A (HTR2A) small molecule antagonists, cell-based qHTS assay (AID 1963586); conditions: HTR2A-CHO cells, DOI-induced calcium flux, fluorescence; at 61.5 µM (top of the series) unless noted; note: nearly all actives have a fitted effect of over 45% in size
How it was run: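 Antagonist-mode intracellular calcium assay: DOI (4 nM) added after 5 min compound pre-incubation at room temperature to dye-loaded HTR2A-CHO cells. Fluorescence followed for 3 min, sampled every second.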

[13] = biological target: 5-hydroxytryptamine receptor 2A (Homo sapiens) (UniProt P28223); experiment: 5-hydroxytryptamine receptor 2A (HTR2A) small molecule agonists, cell-based qHTS assay (AID 1963587); conditions: HTR2A-CHO cells, calcium flux fluorescence, agonist mode; at 76.8 µM (top of the series) unless noted; note: nearly all actives have a fitted effect of over 30% in size
How it was run: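 Kinetic calcium-flux fluorescence (2 min, 1 sec intervals) after compound addition in agonist mode. HTR2A-CHO cells were cultured 18 h, then dye-loaded 1 h at 37 C.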

[14] = biological target: Muscarinic acetylcholine receptor M1 (Homo sapiens) (UniProt P11229); experiment: Cholinergic receptor muscarinic 1 (CHRM1) small molecule antagonists, cell-based qHTS assay (AID 1963588); conditions: CHRM1-CHO antagonist mode, calcium flux fluorescence; at 61.5 µM (top of the series) unless noted; note: nearly all actives have a fitted effect of over 40% in size
How it was run: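 CHRM1-CHO calcium-flux assay, antagonist mode. Cells were seeded 18 h, dye-loaded 1 h at 37 C and given compound for 5 min at RT, then acetylcholine was added at 50nM. FDSS fluorescence was read 3 min; 15 concentrations, three runs.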

[15] = biological target: Muscarinic acetylcholine receptor M1 (Homo sapiens) (UniProt P11229); experiment: Cholinergic receptor muscarinic 1 (CHRM1) small molecule agonists, cell-based qHTS assay (AID 1963589); conditions: CHRM1-CHO cells, agonist mode, calcium flux fluorescence; at 76.8 µM (top of the series) unless noted; note: nearly all actives have a fitted effect of over 35% in size
How it was run: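 Human M1 in stable CHO line; 18 h plating, 1 h dye load 37 C; cpd added (agonist mode); Ca2+ fluorescence kinetic read, 1 s intervals; 15 conc, 3 runs.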

[16] = cAMP Responsive Elements (CRE) small molecule agonists, cell-based qHTS assay (AID 1963590); conditions: CRE-bla HEK293T, beta-lactamase FRET ratio, 3 h; at 92.4 µM (top of the series) unless noted
How it was run: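 HEK 293T CRE-bla, 2,000 cells/well, 18 h preincubation 37 C/5% CO2; cpds (DMSO) pinned, 3 h; LiveBLAzer B/G FRET substrate, 2 h RT.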

[17] = cAMP Responsive Elements (CRE) small molecule antagonists, cell-based qHTS assay (AID 1963591; active = well fitted inhibition curve with a large enough effect in the signal ratio in the repeat runs, not every such curve was filed as active; the % refers to the signal ratio); conditions: CRE-bla HEK293T, beta-lactamase FRET ratio; at 92.4 µM (top of the series) unless noted
How it was run: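 Beta-lactamase reporter read by FRET substrate (LiveBLAzer B/G) after 2 h at room temperature. CRE-bla HEK293T cells had received compound plus 0.25 uM (final) NKH477 for 3 h at 37 °C.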

[18] = biological target: Beta-2 adrenergic receptor (Homo sapiens) (UniProt P07550); experiment: Adrenergic beta2 receptor (ADRB2) small molecule antagonists, cell-based qHTS assay (AID 1963592); conditions: CHO-ADRB2 cells, isoproterenol-stimulated cAMP HTRF ratio, 0.5 h; at 92.4 µM (top of the series) unless noted; note: nearly all actives have a fitted effect of over 50% in size
How it was run: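 Cells (CHO, stable ADRB2 overexpression) incubated 18-20hr at 37C; compounds added from DMSO; agonist mix (1nM isoproterenol, 100uM IBMX, 25uM Ro-20-1724) added; 0.5hr RT; d2-cAMP and anti-cAMP-cryptate added; 1hr RT; 665/615 nm read.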

[19] = biological target: D(2) dopamine receptor (Homo sapiens) (UniProt P14416); experiment: Dopamine D2 receptor (DRD2) small molecule agonists, cell-based qHTS assay (AID 1963594); conditions: HEK293-DRD2 cAMP HTRF, agonist mode, 30 min; at 92.4 µM (top of the series) unless noted; note: nearly all actives have a fitted effect of over 35% in size
How it was run: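 cAMP accumulation in DRD2-HEK293 cells measured by HTRF after 1 h detection; compounds added 10 min before NKH477 (200nM […]) forskolin-analogue stimulation, 30 min at room temperature, with Ro20-1724 present at 0.1 mM final.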

[20] = biological target: D(2) dopamine receptor (Homo sapiens) (UniProt P14416); experiment: Dopamine D2 receptor (DRD2) small molecule antagonists, cell-based qHTS assay (AID 1963595; active = well fitted inhibition curve with a large enough effect in the signal ratio in the repeat runs, with a control signal flat; the % refers to the signal ratio); conditions: HEK293-DRD2 cAMP HTRF antagonist mode; at 92.4 µM (top of the series) unless noted
How it was run: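 HTRF cAMP read-out at 665 and 620 nm emission (340 nm excitation). Antagonist mode: compounds were tested against 12 nM quinpirole in DRD2-HEK293 cells, with 200 nM NKH477 raising cAMP and 0.1 mM Ro20-1724 blocking its breakdown.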

[21] = biological target: Beta-2 adrenergic receptor (Homo sapiens) (UniProt P07550); experiment: Adrenergic beta2 receptor (ADRB2) small molecule agonists, cell-based qHTS assay (AID 1963593); conditions: CHO-ADRB2 cells, cAMP HTRF, 30 min; at 92.4 µM (top of the series) unless noted;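 note: CHO cells stably overexpressing human ADRB2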
How it was run: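 CHO cells stably over-expressing ADRB2 were plated overnight at 37C, then dosed with compounds plus a stimulation mix containing 100uM IBMX and 25uM Ro-20-1724 for 0.5hr at room temperature. cAMP was measured by HTRF competition, 1hr.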
% is set by controls: 0 for no effect and ±100 for the full control effect.

CCOP(=O)(Cl)Cl
inactive: activity change, negative = cytotoxicity [1] 6.37% and 1.8% | activity, positive = activation [2] -7.89% | activity change [3] -0.669% and -0.0069% | activation [4] -4.67% and -2.71% | activation [5] -0.302% and 0.092% | activation [6] 0.0321% and 1.85% | activation [7] 0.166% and -3.26% | activity change, negative = cytotoxicity [8] -0.412% and 5.63% | activity change, negative = cytotoxicity [9] 6.72% and 4.95% | activity change, negative = cytotoxicity [10] -1.97% and -15.4% | activation [11] -7.99% and -2.41% | activity, negative = inhibition [12] 12% and 5.15% | activation [13] 2.72% and -4.33% | activity, negative = inhibition [14] 3.02% and -8.6% | activation [15] 0.174% and -0.452% | activation [16] -0.0762% | activity change, negative = inhibition [17] 16.1% and -5.52% | activity change, negative = inhibition [18] 3.24% and 0.895% | activation [19] 3.08% and -0.123% | activity change, negative = inhibition [20] 7.9% and 3.07%

CC(C)OP(OC(C)C)OC(C)C
inactive: activity change, negative = cytotoxicity [1] 2.66% | activity change [3] 0.0414% | activation [4] 0.17% | activation [5] 0.165% | activation [7] 7.18% | activity change, negative = cytotoxicity [8] 1.08% | activity change, negative = cytotoxicity [9] 0.87% | activity change, negative = cytotoxicity [10] 19.6% | activation [11] 7.9% | activation [13] -0.762% | activity, negative = inhibition [14] 33.3% | activation [15] 0.13% | activation [16] -1.45% | activity change, negative = inhibition [17] -0.811% | activity change, negative = inhibition [18] 5.79% | activation [21] -2.83% | activation [19] 1.68% | activity change, negative = inhibition [20] -6.96%
